Laboratory results: ChEMBL document CHEMBL5360630, “Macrocyclic Peptidomimetic Plasmepsin X Inhibitors with Potent In Vitro and In Vivo Antimalarial Activity” (J Med Chem, 2023)
Activity calls are given as the source filed them. The rule behind the calls is not given here.

Amino acid sequences for entries named in this document (tags omitted). A change or cut given only in a name is not applied to a line headed by its entry.
UniProt Q8IAS0: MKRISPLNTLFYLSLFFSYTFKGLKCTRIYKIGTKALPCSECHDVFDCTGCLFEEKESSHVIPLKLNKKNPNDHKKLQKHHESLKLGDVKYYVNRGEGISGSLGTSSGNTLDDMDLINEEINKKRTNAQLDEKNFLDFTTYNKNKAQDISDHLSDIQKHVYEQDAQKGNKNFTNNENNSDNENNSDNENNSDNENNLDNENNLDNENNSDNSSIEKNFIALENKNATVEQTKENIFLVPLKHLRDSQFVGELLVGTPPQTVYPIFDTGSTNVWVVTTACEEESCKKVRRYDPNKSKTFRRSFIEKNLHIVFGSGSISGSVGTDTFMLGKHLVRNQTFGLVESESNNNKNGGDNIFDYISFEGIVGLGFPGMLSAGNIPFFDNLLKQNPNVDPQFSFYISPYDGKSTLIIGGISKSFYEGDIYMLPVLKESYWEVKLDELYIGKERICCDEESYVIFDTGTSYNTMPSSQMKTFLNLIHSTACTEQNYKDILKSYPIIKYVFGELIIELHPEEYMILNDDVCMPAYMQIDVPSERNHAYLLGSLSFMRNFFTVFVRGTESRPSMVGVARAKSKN

Columns and labels:
[1] = target: Plasmepsin X (Plasmodium falciparum (isolate 3D7)) (UniProt Q8IAS0); settings: dose 20.0 nM
[2] = target: Plasmepsin X (Plasmodium falciparum (isolate 3D7)) (UniProt Q8IAS0); settings: dose 20.0 nM; remark: listed apart in the source

| SMILES | inhibition [1] | inhibition [2] |
| --- | --- | --- |
| CCCN1CCCCCc2cccc(c2)C[C@@H]([C@H](O)CNC(C)(C)c2cccc(OC)c2)NC(=O)c2cccc(c2)C1=O | Active | Active |
| CCCN1CCCCc2cccc(c2)C[C@@H]([C@H](O)CNC(C)(C)c2cccc(OC)c2)NC(=O)c2cccc(c2)C1=O | – | inactive |
| CCCN1CCCCOc2cccc(c2)C[C@@H]([C@H](O)CNC(C)(C)c2cccc(OC)c2)NC(=O)c2cccc(c2)C1=O | – | inactive |
